The assay relates to monoclonal antibody specific for the natural N-terminal Aβ42 sequence DAEFRH. The assay is described as follows: Inhibition assay: mimotope peptides compete with plate-bound DAEFRH-BSA for recognition by the biotinylated monoclonal antibody (ELISA). It is filed as binding, mice. An excerpt:
1.: Generation of Monoclonal Antibodies (mAb) to Detect Aβ42-Derived Peptide Species with Free N-Terminus (Free Aspartic Acid at the N-Terminus)
Mice are vaccinated with the 6mer peptide DAEFRH (SEQ ID NO: 26) (natural N-terminal Aβ42 sequence) linked to the protein bovine serum albumin BSA (to make use of the hapten-carrier-effect), emulsified in CFA (first injection) and IFA (booster injections). DAEFRH (SEQ ID NO: 26)-peptide-specific, antibody-producing hybridomas are detected by ELISA (DAEFRH (SEQ ID NO: 26)-peptide-coated ELISA plates).
FIGS. 2 and 3 describe the results of inhibition assays performed with mimotope peptides included in and obtained from the 5 libraries (as described). The mimotope peptides compete with the original epitope for recognition by the monoclonal antibody. Original epitope and mimotope peptides contain an additional C at the C-terminus for coupling to a protein carrier (if desired).
After blocking with PBS/BSA 1% (200 μl/well, 12 h, 4° C.), the plates are washed 3× times with PBS/Tween. Then, biotinylated monoclonal antibody (1:2000, 50 μl/well) and peptides (50 μl/well) at 50, 5, 0.5, 0.05, 0.005, and 0.0005 μg/ml are added for 20 min. at 37° C. The plates are washed 3× times with PBS/Tween and are incubated with horseradish peroxidase (HRP)-labeled streptavidin (100 μl/well, 30 min, RT). […]

Molecules are shown by their SMILES.

Take `CC(C)C[C@H](NC(=O)[C@H](CCC(=O)O)NC(=O)[C@H](CCCCN)NC(=O)[C@@H](N)CC(=O)O)C(=O)N[C@@H](CCCNC(=N)N)C(=O)N[C@@H](CS)C(=O)O` [Peptide 1238, DKELR]: the “inhibition of epitope recognition by the monoclonal antibody (in words)” value (FIGS. 2-9) is recorded as “block epitope recognition”. Besides, where the note is “summary Tables 1 and 2, in words”, the “Inhibitory capacity of mimotopes” value is listed as “strong”.

(Values after patent publication US8022180B2, “Method for preventing and treating Alzheimer's disease” (Affiris Forschungs-und Entwicklungs GmbH, priority 2004, dated 2011).)
